By UniProt entry, the sequences of proteins in these tests, tags left out.
UniProt P25103, whole entry: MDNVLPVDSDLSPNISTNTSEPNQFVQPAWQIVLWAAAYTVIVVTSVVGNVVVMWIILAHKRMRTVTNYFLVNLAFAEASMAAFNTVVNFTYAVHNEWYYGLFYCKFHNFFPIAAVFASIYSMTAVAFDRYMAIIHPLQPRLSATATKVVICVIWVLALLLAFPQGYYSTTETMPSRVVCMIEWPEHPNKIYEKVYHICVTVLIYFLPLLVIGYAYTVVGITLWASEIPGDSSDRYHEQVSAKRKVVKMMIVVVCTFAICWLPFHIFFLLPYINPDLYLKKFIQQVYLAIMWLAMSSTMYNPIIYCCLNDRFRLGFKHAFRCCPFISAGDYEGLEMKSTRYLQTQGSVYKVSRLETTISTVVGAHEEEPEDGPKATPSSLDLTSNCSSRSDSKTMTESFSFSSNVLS

In patent US6916797B2, “α-arylethylpiperazine derivatives as neurokinin antagonists” (UCB, S.A., priority 2000, dated 2005):

Target: NK1 receptors (Homo sapiens, UniProt P25103)
Experiment: Binding of [4,5-3H-Leu10] substance P to human recombinant NK1 receptors expressed in CHO cell membranes
Design: host or cells: CHO cells
Settings: pIC50, pIC50 = -log IC50, concentration inhibiting by 50% the specific binding of [4,5-3H] substance P; tested as the free base/salt given in c1
Method: The following test was designed to assess the affinity of test substances for human recombinant NK1 receptors expressed in Chinese Hamster Ovarian (CHO) cells.
CHO cells expressing the human recombinant NK1 receptor are used. The cells were obtained from Euroscreen (Brussels, Belgium).
Cells expressing the human NK1 receptor are routinely cultured in 175 cm2 flasks containing 75 ml of medium F12 (Ham) enriched with 2 mmol/l L-glutamine, 100 IU/ml penicilline, 100 μg/ml streptomycine, 1% sodium pyruvate, 2.5 μg/ml fungizone amphotericin B, 400 μg/ml geneticin and supplemented with 10% foetal calf serum. […] When subcultured, the cells are seeded at a concentration of 50,000 cells/cm2.
Confluent cells are gently scraped and resuspended in 25 ml of phosphate buffered saline without calcium and magnesium. The cellular suspension is centrifuged at 1500×g for 3 min (4° C.). The cell pellet is homogenized in a 15 mmol/l Tris-HCl (pH 7.5) buffer, 2 mmol/l MgCl2, 0.3 mmol/l EDTA, 1 mmol/l EGTA. The crude membrane fraction is collected by two consecutive centrifugation steps at 40,000×g for 25 min (4° C.). The final pellet is resuspended in 20 mmol/l Tris-HCl (pH 7.4), 250 mmol/l sucrose buffer at a protein concentration ranging from 2 to 6 mg/ml and stored in liquid nitrogen. • 1.2.2. Test Design
The inhibition constant (Ki) is determined using increasing concentrations of the test substance. […]

## C[C@@H](OC[C@@H](c1ccccc1)N1CCN(CCOCC(=O)O)CC1)c1cc(C(F)(F)F)cc(C(F)(F)F)c1 [Compound 281]
  IC50: 7.94 nM
